This is an account of results in patent US7235366 (dated 2007).

A word on the Ki: it is the equilibrium dissociation constant of an inhibitor or competing ligand from its target. As usually defined, the IC50 is the point on the concentration scale where inhibition reaches its midpoint. Low values mean greater potency in that assay, high ones weaker potency in that assay.

Common to all, as to test: competition
One experiment concerns the target T1, rat mu opioid receptor (Rattus norvegicus, UniProt P33535).
T1 chain: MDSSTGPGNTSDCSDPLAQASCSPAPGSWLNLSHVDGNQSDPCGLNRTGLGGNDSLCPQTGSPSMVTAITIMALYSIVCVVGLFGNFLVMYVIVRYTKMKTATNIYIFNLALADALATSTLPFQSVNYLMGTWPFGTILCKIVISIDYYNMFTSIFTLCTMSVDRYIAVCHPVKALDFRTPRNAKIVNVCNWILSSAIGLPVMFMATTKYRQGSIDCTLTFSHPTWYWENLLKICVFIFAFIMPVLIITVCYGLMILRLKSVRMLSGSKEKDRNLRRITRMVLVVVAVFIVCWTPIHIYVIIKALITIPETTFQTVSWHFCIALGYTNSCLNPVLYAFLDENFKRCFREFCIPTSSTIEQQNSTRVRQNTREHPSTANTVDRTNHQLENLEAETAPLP

Experiment [1] deals with T2, human mu opioid receptor (Homo sapiens, UniProt P35372).
The target in experiment [2] is T3, mouse delta opioid receptor (mORD1, msl-2) (Mus musculus).
T3 chain: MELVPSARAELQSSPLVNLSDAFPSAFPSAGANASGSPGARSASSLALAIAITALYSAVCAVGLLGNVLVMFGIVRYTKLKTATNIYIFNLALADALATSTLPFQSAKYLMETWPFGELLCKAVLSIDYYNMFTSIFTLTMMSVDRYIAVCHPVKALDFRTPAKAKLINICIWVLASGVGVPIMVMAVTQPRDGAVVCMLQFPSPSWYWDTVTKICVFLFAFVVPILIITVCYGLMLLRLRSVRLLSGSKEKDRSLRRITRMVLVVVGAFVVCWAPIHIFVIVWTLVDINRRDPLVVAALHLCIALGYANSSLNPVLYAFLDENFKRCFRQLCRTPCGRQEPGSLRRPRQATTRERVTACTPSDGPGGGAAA

In experiment [3] the target is T4, delta opioid receptor H278N mutant (Mus musculus).
T4 chain: T3 chain with H278N

In experiment [4] the target is T2, human mu opioid receptor. This is another data set of the same source.
The target in experiment [5] is T5, delta opioid receptor D128N mutant (Mus musculus).
T5 chain: T3 chain with D128N

The target of experiment [6] is T3, mouse delta opioid receptor (mORD1, …).

Positions count from the first letter of the chain named. Where two headings read alike, the source gives them in different places.

B1: beta-Endorphin (protein)
chain: WCLESSQCQDLTTESNLLECIRACKPDLSAETPMFPGNGDEQPLTENPRKYVMGHFRWDRFGRRNSSSSGSSGAGQKREDVSAGEDCGPLPEGGPEPRSDGAKPGPREGKRSYSMEHFRWGKPVGKKRRPVKVYPNGAEDESAEAFPLEFKRELTGQRLREGDGPDGPADDGAGAQADLEHSLLVAAEKKDEGPYRMEHFRWGSPPKDKRYGGFMTSEKSQTPLVTLFKNAIIKNAYKKGE
As to B1, the Ki amounted to 1.7 nM with rat mu opioid receptor; 0.94 nM with human mu opioid receptor [1]; 26 nM in experiment [2]; 8.1 nM in experiment [3]; 0.94 nM in the experiment with human mu opioid receptor [4]; 15.8 µM in experiment [5]. Also, the IC50 in experiment [6] came to 15.3 nM.
